Earlier results, collected in patent publication US20180128811A1, “ASPIRIN RESPONSE AND REACTIVITY TEST AND ASPIRIN COMPLIANCE TEST USING SYNTHETIC COLLAGEN” (JNC Corporation, priority 2012, published 2018).

Conditions: higher doses (more than 4.0 g); cited from earlier work

**Q.** With acetylsalicylic acid [aspirin] as the substance, how does the Half-life read?
**A.** The Half-life was 15 to 30 h.
